Consider nine molecules from PubChem BioAssay (NCI).

Experiment [1] is described as follows: NCI Yeast Anticancer Drug Screen. Data for the rad50 strain (AID 155).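 Further: 0% = growth of vehicle-only cultures of the same strain.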 To be noted: S. cerevisiae rad50 strain growth inhibition, hits give high values.
Experiment [2] can be described thus: NCI Yeast Anticancer Drug Screen. Data for the mec2-1 strain (AID 157). To be noted: S. cerevisiae mec2-1 strain, hits give high values.
Experiment [3] is described as follows: NCI Yeast Anticancer Drug Screen. Data for the sgs1 mgt1 strain (AID 161).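 Further: 0% = growth of cultures given vehicle only.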 To be noted: S. cerevisiae sgs1 mgt1 strain, hits give high values.
Experiment [4] can be described thus: NCI Yeast Anticancer Drug Screen. Data for the cln2 rad14 strain (AID 165).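 Further: 0% = growth equal to vehicle treated cultures.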 As to conditions: S. cerevisiae cln2 rad14 strain, hits give high values.
The nature of experiment [5]: NCI Yeast Anticancer Drug Screen. Data for the bub3 strain (AID 167). As to conditions: S. cerevisiae bub3 mutant strain, hits give high values.
Experiment [6] in a line: NCI Yeast Anticancer Drug Screen. Data for the mlh1 rad18 strain (AID 175). As to conditions: S. cerevisiae mlh1 rad18 strain growth inhibition, hits give high values.
Where [7] appears, read: at 5.0 µM (retest, dose inferred, filed as 0.5).
The mark [8] stands for this setting: at 50.0 µM (retest, dose inferred, filed as 5.0).

Structures are written as SMILES. The entries are a selection whose mix differs from that of the whole data set. The source holds several records for some structures; these can differ, active in one and inactive in another. Active and inactive are the calls of the source. No stated cut-off is given here; in the data, active means growth inhibition above about 70%; inactive means the rest.

Regarding `O=P1(N(CCCl)CCCl)Oc2ccc(Cl)cc2C(C(Cl)(Cl)Cl)O1` (configuration not stated), the growth inhibition in experiment [1] (setting [7]) was inactive: 5%; in experiment [1] (setting [8]) it was active: 98%; in experiment [1] (at 50.0 µM) it was active: 97.8%; in experiment [2] (setting [7]) it was inactive: -4%; in experiment [2] (setting [8]), active: 99%; in experiment [2] (at 50.0 µM), active: 97.2%. The growth inhibition was inactive: -1% in experiment [3] (setting [7]); active: 99% in experiment [3] (setting [8]); active: 97.8% in experiment [3] (at 50.0 µM); inactive: 3% in experiment [4] (setting [7]); active: 97% in experiment [4] (setting [8]); active: 97.2% in experiment [4] (at 50.0 µM). Also, the growth inhibition is inactive: 10% in experiment [5] (setting [7]); active: 98% in experiment [5] (setting [8]); active: 97.7% in experiment [5] (at 50.0 µM); inactive: 4% in experiment [6] (setting [7]); active: 98% in experiment [6] (setting [8]); active: 98.1% in experiment [6] (at 50.0 µM).

Regarding `O=[N+]([O-])c1cc([As](O)O)ccc1O`, the growth inhibition in experiment [1] (setting [7]) was inactive: 46%; in experiment [1] (setting [8]), active: 100%; in experiment [1] (at 50.0 µM), active: 99.9%; in experiment [2] (setting [7]), inactive: 20%; in experiment [2] (setting [8]), active: 99%; in experiment [2] (at 50.0 µM), active: 99.9%. Further, the growth inhibition is inactive: 42% in experiment [3] (setting [7]); active: 99% in experiment [3] (setting [8]); active: 99.8% in experiment [3] (at 50.0 µM); inactive: 19% in experiment [4] (setting [7]); active: 99% in experiment [4] (setting [8]); active: 99.5% in experiment [4] (at 50.0 µM). For the same molecule, the growth inhibition is inactive: 49% in experiment [5] (setting [7]); active: 99% in experiment [5] (setting [8]); active: 99.6% in experiment [5] (at 50.0 µM); inactive: 38% in experiment [6] (setting [7]); active: 98% in experiment [6] (setting [8]); active: 99.8% in experiment [6] (at 50.0 µM).

Turning to `CCN(CC)[P+](c1ccc(OC)cc1OC)(N(CC)CC)N(CC)CC`, the growth inhibition in experiment [1] (setting [7]) is active: 80%; in experiment [1] (setting [8]) it was active: 95%; in experiment [1] (at 50.0 µM), active: 82.8%; in experiment [2] (setting [7]), active: 70%; in experiment [2] (setting [8]), active: 96%; in experiment [2] (at 50.0 µM), active: 85.2%. In addition, the growth inhibition in experiment [3] (setting [7]) was active: 88%; in experiment [3] (setting [8]), active: 96%; in experiment [3] (at 50.0 µM), active: 86.5%; in experiment [4] (setting [7]) it was inactive: 69%; in experiment [4] (setting [8]), active: 94%; in experiment [4] (at 50.0 µM), active: 82%. Also, the growth inhibition was active: 88% in experiment [5] (setting [7]); active: 96% in experiment [5] (setting [8]); active: 87.7% in experiment [5] (at 50.0 µM); active: 73% in experiment [6] (setting [7]); active: 95% in experiment [6] (setting [8]); active: 88.6% in experiment [6] (at 50.0 µM).

For `COc1ccc2c(C)c3cccc[n+]3cc2c1`, the growth inhibition was active: 75% in experiment [1] (setting [7]); active: 88% in experiment [1] (setting [8]); inactive: 14.6% in experiment [1] (at 50.0 µM); inactive: 59% in experiment [2] (setting [7]); active: 88% in experiment [2] (setting [8]); inactive: 3.7% in experiment [2] (at 50.0 µM). The growth inhibition in experiment [3] (setting [7]) was active: 74%; in experiment [3] (setting [8]), active: 90%; in experiment [3] (at 50.0 µM), inactive: 12.7%; in experiment [4] (setting [7]) it was inactive: 54%; in experiment [4] (setting [8]), active: 81%; in experiment [4] (at 50.0 µM), inactive: 4.55%. Besides, the growth inhibition was inactive: 57% in experiment [5] (setting [7]); active: 86% in experiment [5] (setting [8]); inactive: 37.6% in experiment [5] (at 50.0 µM); inactive: 54% in experiment [6] (setting [7]); active: 82% in experiment [6] (setting [8]); inactive: 3.6% in experiment [6] (at 50.0 µM).

For the molecule `C1=C(CCc2ccccc2)c2ccc3ccccc3c2CC1`, the growth inhibition was inactive: 27% in experiment [1] (setting [7]); active: 82% in experiment [1] (setting [8]); active: 91.8% in experiment [1] (at 50.0 µM); inactive: 20% in experiment [2] (setting [7]); active: 91% in experiment [2] (setting [8]); active: 95% in experiment [2] (at 50.0 µM). The growth inhibition in experiment [3] (setting [7]) was inactive: 48%; in experiment [3] (setting [8]) it was active: 87%; in experiment [3] (at 50.0 µM), active: 93.2%; in experiment [4] (setting [7]) it was inactive: 4%; in experiment [4] (setting [8]), active: 83%; in experiment [4] (at 50.0 µM), active: 86.1%. Besides, the growth inhibition in experiment [5] (setting [7]) was inactive: 50%; in experiment [5] (setting [8]), active: 87%; in experiment [5] (at 50.0 µM) it was active: 84.9%; in experiment [6] (setting [7]), inactive: 25%; in experiment [6] (setting [8]) it was active: 87%; in experiment [6] (at 50.0 µM), active: 92.7%.

As for `N#CSc1ccc([N+](=O)[O-])cc1[N+](=O)[O-]`, the growth inhibition in experiment [1] (setting [7]) was active: 91%; in experiment [1] (setting [8]), active: 99%; in experiment [1] (at 50.0 µM) it was active: 99.2%; in experiment [2] (setting [7]), inactive: 61%; in experiment [2] (setting [8]), active: 100%; in experiment [2] (at 50.0 µM), active: 99.4%. Moreover, the growth inhibition in experiment [3] (setting [7]) is active: 95%; in experiment [3] (setting [8]), active: 99%; in experiment [3] (at 50.0 µM), active: 99.8%; in experiment [4] (setting [7]) it was inactive: 47%; in experiment [4] (setting [8]), active: 99%; in experiment [4] (at 50.0 µM), active: 80.1%. In addition, the growth inhibition in experiment [5] (setting [7]) was active: 76%; in experiment [5] (setting [8]), active: 99%; in experiment [5] (at 50.0 µM), active: 99.3%; in experiment [6] (setting [7]), active: 81%; in experiment [6] (setting [8]), active: 98%; in experiment [6] (at 50.0 µM) it was active: 99.2%.

For `N#Cc1cc([N+](=O)[O-])cc([N+](=O)[O-])c1N`, the growth inhibition in experiment [1] (at 1.2 µM) is inactive: 5%; in experiment [1] (at 3.7 µM) it was inactive: 17%; in experiment [1] (setting [7]) it was inactive: -15%; in experiment [1] (at 11.0 µM) it was inactive: 28%; in experiment [1] (at 33.0 µM), inactive: 61%; in experiment [1] (setting [8]) it was inactive: 50%. The growth inhibition in experiment [1] (at 50.0 µM) was active: 81.7%; in experiment [1] (at 100.0 µM), active: 78%; in experiment [2] (at 1.2 µM), inactive: 6%; in experiment [2] (at 3.7 µM), inactive: 12%; in experiment [2] (setting [7]), inactive: -9%; in experiment [2] (at 11.0 µM), inactive: 15%. In addition, the growth inhibition in experiment [2] (at 33.0 µM) was inactive: 26%; in experiment [2] (setting [8]) it was inactive: 40%; in experiment [2] (at 50.0 µM) it was inactive: 47.4%; in experiment [2] (at 100.0 µM), inactive: 40%; in experiment [3] (setting [7]) it was inactive: 2%; in experiment [3] (setting [8]) it was inactive: 29%. The growth inhibition was inactive: 19.6% in experiment [3] (at 50.0 µM); inactive: -65% in experiment [4] (setting [7]); inactive: 9% in experiment [4] (setting [8]); inactive: 22% in experiment [4] (at 50.0 µM); inactive: -12% in experiment [5] (at 1.2 µM); inactive: -2% in experiment [5] (at 3.7 µM). In addition, the growth inhibition in experiment [5] (setting [7]) was inactive: -28%; in experiment [5] (at 11.0 µM) it was inactive: 7%; in experiment [5] (at 33.0 µM) it was inactive: 26%; in experiment [5] (setting [8]), inactive: 19%; in experiment [5] (at 50.0 µM), inactive: 13.6%; in experiment [5] (at 100.0 µM) it was inactive: 46%. The growth inhibition in experiment [6] (setting [7]) was inactive: -15%; in experiment [6] (setting [8]), active: 76%; in experiment [6] (at 50.0 µM), inactive: 61.4%.

`NNP(=O)(OCc1ccccc1)N(CCCl)CCCl` (configuration not stated): the growth inhibition is inactive: -6% in experiment [1] (setting [7]); inactive: 1% in experiment [1] (setting [8]); inactive: -10.4% in experiment [1] (at 50.0 µM); inactive: 2% in experiment [2] (setting [7]); inactive: 5% in experiment [2] (setting [8]); inactive: 12.4% in experiment [2] (at 50.0 µM). In addition, the growth inhibition in experiment [3] (setting [7]) is inactive: -3%; in experiment [3] (setting [8]), inactive: 5%; in experiment [3] (at 50.0 µM), inactive: 9.4%; in experiment [4] (setting [7]) it was inactive: -1%; in experiment [4] (setting [8]), inactive: 39%; in experiment [4] (at 50.0 µM), inactive: 50.3%. The growth inhibition was inactive: -5% in experiment [5] (setting [7]); inactive: 9% in experiment [5] (setting [8]); inactive: 7.05% in experiment [5] (at 50.0 µM); inactive: -3% in experiment [6] (setting [7]); inactive: 0% in experiment [6] (setting [8]); inactive: 25.9% in experiment [6] (at 50.0 µM).

As for `CC(C)(C)NCCSP(=S)(c1ccccc1)c1ccccc1`, the growth inhibition in experiment [1] (setting [7]) is inactive: 21%; in experiment [1] (setting [8]) it was active: 94%; in experiment [1] (at 50.0 µM), inactive: 30.4%; in experiment [2] (setting [7]), inactive: 2%; in experiment [2] (setting [8]) it was inactive: 41%; in experiment [2] (at 50.0 µM), inactive: 15.2%. In addition, the growth inhibition in experiment [3] (setting [7]) was inactive: 9%; in experiment [3] (setting [8]), active: 88%; in experiment [3] (at 50.0 µM), inactive: 54.1%; in experiment [4] (setting [7]) it was inactive: 0%; in experiment [4] (setting [8]), inactive: 49%; in experiment [4] (at 50.0 µM), inactive: 7.4%. Moreover, the growth inhibition in experiment [5] (setting [7]) was inactive: 5%; in experiment [5] (setting [8]), inactive: 67%; in experiment [5] (at 50.0 µM) it was active: 71.8%; in experiment [6] (setting [7]) it was inactive: 16%; in experiment [6] (setting [8]), active: 88%; in experiment [6] (at 50.0 µM), inactive: 55%.
